According to patent publication US20110182831A1 (priority 2010, published 2011):
Where two headings read alike, the source gives them in different places.

Tests used:
[1] = not given; remark: listed apart in the source
[2] = not given; remark: listed apart in the source
[3] = not given; remark: listed apart in the source
[4] = room temperature, duration of stability study
[5] = clinical; conditions: male, human, in vivo, inhaled or intranasal
[6] = cited from earlier work
[7] = different combinations of device and formulation

Question: With `CN1CCCC1c1cccnc1` (centres unmarked) [nicotine, S-3-(1-methyl-2-pyrrolidinyl)pyridine] as the compound, how does the “subject-reported craving immediately following study dosing” value (nearly all subjects) read?
Answer: acute reduction in craving or an absence of craving

Question: What about the mean craving score (scale of 0 to 10, all dose levels combined, within 5 minutes post-dosing, pre-dose 4.9) of the same compound?
Answer: 1.4

Question: What about the “safety and tolerability conclusion” value ([1]; inhaled nicotine via the AERx Essence) of the same compound?
Answer: safe and tolerable

Question: What about the “severity of AEs” value ([1]; most AEs, self-resolved without medication) of the same compound?
Answer: mild or moderate

Question: What about the “serious AEs” value ([1]; single-bolus inhaled doses) of the same compound?
Answer: No serious AEs were observed

Question: And the “changes in safety measures following dosing” value ([1]; vital signs, ECG, spirometry, labs)?
Answer: No clinically significant changes

Question: And the “impact on pH” value ([2]; 28 days, throughout pH range 3.0-7.0)?
Answer: no impact on pH

Question: What about the “nicotine concentration on storage” value ([2]; higher pH values) of the same compound?
Answer: decreased over time

Question: What about the “nicotine concentration on storage” value ([2]; lower pH's of 3.0 and 4.0, buffered, screening study pH 3.0-7.0) of the same compound?
Answer: unaltered

Question: And the GSD [3, 7]?
Answer: 1.3

Question: And the MMAD [3, 7]?
Answer: 2.5-2.7 μm

Question: What about the GSD ([3]; either dose reduction strategy) of the same compound?
Answer: 1.3

Question: What about the fine particle fraction ([3]; either dose reduction strategy) of the same compound?
Answer: 80%

Question: What about the “typical MMAD” value ([3]; either dose reduction strategy) of the same compound?
Answer: 2.6 μm

Question: And the “typical fine particle fraction” value ([3]; fraction of particles under 3.5 μm)?
Answer: about 80%

Question: What about the “stability of aqueous formulation” value [4] of the same compound?
Answer: stable at room temperature for a period of at least a month

Question: And the Tmax [5]?
Answer: 1 min

Question: What about the AUC(0-t) ([5]; 0.2 mg) of the same compound?
Answer: 5.32 ng·h/mL

Question: And the Cmax ([5]; 0.2 mg)?
Answer: 0.0115 µg/mL

Question: And the Tmax ([5]; 0.2 mg)?
Answer: 1 min

Question: And the half-life ([5]; 0.2 mg)?
Answer: 136 min

Question: And the AUC(0-t) ([5]; 0.4 mg)?
Answer: 8.87 ng·h/mL

Question: What about the Cmax ([5]; 0.4 mg) of the same compound?
Answer: 0.018 µg/mL

Question: And the Tmax ([5]; 0.4 mg)?
Answer: 1 min

Question: And the half-life ([5]; 0.4 mg)?
Answer: 114 min

Question: And the AUC(0-t) ([5]; 0.7 mg)?
Answer: 10.4 ng·h/mL

Question: What about the Cmax ([5]; 0.7 mg) of the same compound?
Answer: 0.0229 µg/mL

Question: And the Tmax ([5]; 0.7 mg)?
Answer: 1 min

Question: What about the half-life ([5]; 0.7 mg) of the same compound?
Answer: 97 min

Question: And the peak plasma concentrations ([6]; cigarette smoking, believed typical)?
Answer: 25 to 40 ng/mL

Question: What about the “time to peak plasma concentration” value ([6]; cigarette smoking) of the same compound?
Answer: 5 to 7 min

Question: What about the “nicotine the smoker typically absorbs per cigarette” value ([6]; cigarettes contain 6 to 11 mg of nicotine) of the same compound?
Answer: 1 to 3 mg
